# Source: patent US8226986B2 (priority 2006, dated 2012)
# Tested on: aortic occlusion-induced ischemia/reperfusion (I/R) injury
# Conditions: pig, in vivo
substance,measurement,value
sodium sulfide [Na2S],pulmonary toxicity,some pulmonary toxicity was present
